Values of other authors in patent US7045339B2, “Electron donors for chlorinated solvent source area bioremediation” (SRP Technologies, Inc., priority 2002, dated 2006).

Settings: surfactant concentration 1%; cited from earlier work

Nonylphenol ethoxylate
PCE Solubilized: 1,300 mg/l
